Laboratory results from US9555039B2, “Piperidine derivatives and compositions for the inhibition of nicotinamide phosphoribosyltransferase (NAMPT)” (Forma TM, LLC., priority 2011, dated 2017).

Chains of the proteins cited; added tags and fusions are not shown. Lines headed by an entry give the natural chain unless they say otherwise; changes in a name come on top.
UniProt P43490: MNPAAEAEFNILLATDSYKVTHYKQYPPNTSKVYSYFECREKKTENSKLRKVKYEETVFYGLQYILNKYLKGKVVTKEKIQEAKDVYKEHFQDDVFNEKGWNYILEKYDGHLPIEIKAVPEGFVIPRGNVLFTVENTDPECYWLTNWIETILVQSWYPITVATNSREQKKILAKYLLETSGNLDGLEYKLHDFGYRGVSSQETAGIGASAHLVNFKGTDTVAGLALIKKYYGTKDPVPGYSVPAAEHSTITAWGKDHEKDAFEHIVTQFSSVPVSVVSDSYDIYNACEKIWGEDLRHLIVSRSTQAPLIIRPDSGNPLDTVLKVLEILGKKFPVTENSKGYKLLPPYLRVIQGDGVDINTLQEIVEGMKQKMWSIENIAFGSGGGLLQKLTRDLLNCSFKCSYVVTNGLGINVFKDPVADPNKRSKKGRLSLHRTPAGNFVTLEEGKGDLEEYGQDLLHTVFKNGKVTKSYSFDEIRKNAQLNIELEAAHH

Tested on: A2780 cells
Test: In-vitro cell proliferation assay (SRB, 72 hours)
Type: cell-based
Details: Homo sapiens, sulforhodamine B (SRB) assay
Method: In-Vitro Cell Proliferation Assay
After overnight incubation at 37° C. and 5% CO2, the compound titrations were performed in a separate dilution plate by serially diluting the compounds in DMSO to make a 1000× stock. The compounds were then further diluted to 10× final concentration in culture media, whereupon 20 μL of each dilution was added to the plated cells with controls (e.g. DMSO and blank) to make a final volume of 200 μL. The final DMSO concentration in each well was 0.1%. The plates were then incubated for 72 hours at 37° C. in a 5% CO2 incubator. The number of viable cells was then assessed using sulforhodamine B (SRB) assay. Cells were fixed at 4° C. for 1 hour with the addition of 50 μL 30% trichloroacetic acid (TCA) to make a final concentration of 6% TCA. The plates were washed four times with H2O and allowed to dry for at least 1 hour, whereupon 100 μL of a 4% SRB in 1% acetic acid solution was added to each well and incubated at room temperature for at least 30 minutes. The plates were then washed three times with 1% acetic acid, dried, and treated with 100 μL of 10 mM Tris-Base solution. The plates were then read in a microplate reader at an absorbance of 570 nm. Background was generated on a separate plate with media only.
Method for Determining % Inhibition
First, the signals from the background plate are averaged, then the background was subtracted from the test plates.
wherein x denotes the average signal of the compound-treated cells and y denotes the average signal of the DMSO-treated cells.
wherein X denotes the compound concentration 1, Y denotes the compound concentration 2, XX denotes the % inhibition at compound concentration 1 (X), and YY denotes the % inhibition at compound concentration 2 (Y).

| Structure (SMILES) | IC50 [nM] |
| --- | --- |
| O=C(NCCCCC1CN(C(=O)c2ccccc2)C1)c1cc2cnccc2[nH]1 [N-[4-(1-benzoylazetidin-3-yl)butyl]-1H-pyrrolo[3,2-c]pyridine-2-carboxamide] | 76.9 |
| COCc1ccc(C(=O)N2CCC(CCCCNC(=O)c3cc4ccncc4s3)CC2)nc1 [N-[4-(1-{[5-(methoxymethyl)pyridin-2-yl]carbonyl}piperidin-4-yl)butyl]thieno[2,3-c]pyridine-2-carboxamide] | 30.2 |
| CC(C)c1ncoc1C(=O)N1CCC(CCCCNC(=O)c2cc3ccncc3s2)CC1 [N-[4-(1-{[4-(propan-2-yl)-1,3-oxazol-5-yl]carbonyl}piperidin-4-yl)butyl]thieno[2,3-c]pyridine-2-carboxamide] | 7.6 |

Biological target: T1, Recombinant His-tagged NAMPT (Homo sapiens, UniProt P43490)
T1 construct: His; host or cells: E. coli
Test: Biochemical inhibition assay: NAMPT enzymatic reaction, NMN quantified by mass spectrometry
Details: 33 nM NAMPT, 1 μM NAM, 100 μM PRPP, 2.5 mM ATP, 30 minutes at room temperature; read-out: Biochem IC50
Method: Biochemical Inhibition Assay
NAMPT Protein Purification
Recombinant His-tagged NAMPT was produced in E. coli cells, purified over a Ni column, and further purified over a size-exclusion column by XTAL Biostructures.
The NAMPT Enzymatic Reaction
The NAMPT enzymatic reactions were carried out in Buffer A (50 mM Hepes pH 7.5, 50 mM NaCl, 5 mM MgCl2, and 1 mM THP) in 96-well V-bottom plates. The compound titrations were performed in a separate dilution plate by serially diluting the compounds in DMSO to make a 100× stock. […] The compound and enzyme mix was incubated for 15 minutes at room temperature, then 10 μL of 10× substrate and co-factors in Buffer A were added to the test well to make a final concentration of 1 μM NAM, 100 μM 5-Phospho-D-ribose 1-diphosphate (PRPP), and 2.5 mM Adenosine 5′-triphosphate (ATP). The reaction was allowed to proceed for 30 minutes at room temperature, then was quenched with the addition of 11 μL of a solution of formic acid and L-Cystathionine to make a final concentration of 1% formic acid and 10 μM L-Cystathionine. Background and signal strength was determined by addition (or non-addition) of a serial dilution of NMN to a pre-quenched enzyme and cofactor mix.
A mass spectrometry-based assay was used to measure the Nampt reaction product (NMN) and the internal control (L-Cystathionine). NMN and L-Cystathionine were detected using the services of Biocius Lifesciences with the RapidFire system. In short, the NMN and L-Cystathionine are bound to a graphitic carbon cartridge in 0.1% formic acid, eluted in 30% acetonitrile buffer, and injected into a Sciex 4000 mass spectrometer. The components of the sample were ionized with electrospray ionization and the positive ions were detected. […] The fragments are quantified and the analyzed by the following method.
First the NMN signal is normalized to the L-Cystathionine signal by dividing the NMN signal by the L-Cystathionine signal for each well. The signal from the background wells are averaged and subtracted from the test plates.
Wherein x denotes the average signal of the compound treated wells and y denotes the average signal of the DMSO treated wells.
IC50s are Determined Using Excel and this Formula.
Wherein X denotes the compound concentration 1, Y denotes the compound concentration 2, XX denotes the % inhibition at compound concentration 1 (X), and YY denotes the % inhibition at compound concentration 2 (Y).

| Structure (SMILES) | IC50 [nM] |
| --- | --- |
| O=C(NCCCCC1CCN(C(=O)c2cc(F)ccc2F)CC1)c1cc2ccncc2s1 [N-(4-{1-[(2,5-difluorophenyl)carbonyl]piperidin-4-yl}butyl)thieno[2,3-c]pyridine-2-carboxamide] | 7.6 |
| O=C(NCCCCC1CCN(C(=O)c2ccc(-n3cccn3)cc2)CC1)c1ccc2nccn2c1 [N-[4-(1-{[4-(1H-pyrazol-1-yl)phenyl]carbonyl}piperidin-4-yl)butyl]imidazo[1,2-a]pyridine-6-carboxamide] | 30.7 |
| O=C(NCCCCC1CCN(C(=O)c2cccc(Cl)c2)CC1)c1cc2cnccc2[nH]1 [N-(4-{1-[(3-chlorophenyl)carbonyl]piperidin-4-yl}butyl)-1H-pyrrolo[3,2-c]pyridine-2-carboxamide] | 21.7 |
| COc1cccc(C(=O)N2CCC(CCCCNC(=O)c3ccc4nccn4c3)CC2)c1 [N-(4-{1-[(3-methoxyphenyl)carbonyl]piperidin-4-yl}butyl)imidazo[1,2-a]pyridine-6-carboxamide] | 21.2 |
| Cc1cccc(C(=O)N2CCC(CCCCNC(=O)c3cc4ccncc4s3)CC2)c1F [N-(4-{1-[(2-fluoro-3-methylphenyl)carbonyl]piperidin-4-yl}butyl)thieno[2,3-c]pyridine-2-carboxamide] | 21.2 |
| COc1cc(OC)cc(C(=O)N2CCC(CCCCNC(=O)c3ccc4nccn4c3)CC2)c1 [N-(4-{1-[(3,5-dimethoxyphenyl)carbonyl]piperidin-4-yl}butyl)imidazo[1,2-a]pyridine-6-carboxamide] | 22.5 |
| COc1ccc(Cl)cc1C(=O)N1CCC(CCCCNC(=O)c2cc3cnccc3[nH]2)CC1 [N-(4-{1-[(5-chloro-2-methoxyphenyl)carbonyl]piperidin-4-yl}butyl)-1H-pyrrolo[3,2-c]pyridine-2-carboxamide] | 33.8 |
| COc1cccc(C(=O)N2CCC(CCCCNC(=O)c3cc4cnccc4[nH]3)CC2)c1 [N-(4-{1-[(3-methoxyphenyl)carbonyl]piperidin-4-yl}butyl)-1H-pyrrolo[3,2-c]pyridine-2-carboxamide] | 24.8 |
| O=C(NCCCCC1CCN(C(=O)c2ccc(F)cc2)CC1)c1cc2cnccc2[nH]1 [N-(4-{1-[(4-fluorophenyl)carbonyl]piperidin-4-yl}butyl)-1H-pyrrolo[3,2-c]pyridine-2-carboxamide] | 59.8 |
